Measured values as given in patent EP0953357A1, “NEPHROTROPIC DRUGS” (Drug Delivery System Institute, Ltd., priority 1997, dated 1998).

Assay: Organ distribution of oxytocin derivatives (Test 5)
Details: rats, as in Test 1; average (n = 3) ± standard error

oxytocin
Hepatic clearance: 0.05 ± 0.01 mL/min/g | Renal clearance: 0.39 ± 0.06 mL/min/g
